The source of these data is US6642389B2, “Oxazole derivatives” (Hoffmann-La Roche Inc., priority 2001, dated 2003).

The target of experiment [1] is T1, PPARα (Homo sapiens, UniProt Q07869).
T1 sequence (Q07869 167-468 limits assumed): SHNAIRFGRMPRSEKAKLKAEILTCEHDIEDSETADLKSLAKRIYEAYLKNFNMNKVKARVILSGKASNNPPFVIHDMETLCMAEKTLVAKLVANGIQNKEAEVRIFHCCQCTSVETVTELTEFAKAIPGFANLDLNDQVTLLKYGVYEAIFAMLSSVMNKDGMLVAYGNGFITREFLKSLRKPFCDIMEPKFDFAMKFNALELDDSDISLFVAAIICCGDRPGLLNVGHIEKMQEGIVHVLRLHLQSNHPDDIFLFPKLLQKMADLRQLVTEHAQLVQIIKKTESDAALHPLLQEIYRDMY
The experiment can be described thus: Radioligand binding assay, PPARα receptor binding (GST-PPARα-LBD fusion protein). An excerpt: (§1) Full-length cDNA clones for human PPARα and mouse PPARγ were obtained by RT-PCR from human adipose and mouse liver cRNA, respectively, cloned into plasmid vectors and verified by DNA sequencing. […] To accomplish this, the portions of the cloned sequences encoding the LBDs were amplified from the full-length clones by PCR and then subcloned into the plasmid vectors pGEX4T-2(Pharmacia) and pFA-CMV(Stratagene). Final clones were verified by DNA sequence analysis.
Induction, expression, and purification of GST-LBD fusion proteins were performed in E. coli strain BL21(pLysS) cells by standard methods (Ref: Current Protocols in Molecular Biology, Wiley Press, edited by Ausubel et al.).
PPARα receptor binding was assayed in TKE10 (10 mM Tris-HCl, pH 8, 50 mM KCl, 2 mM EDTA, 0.1 mg/ml fatty acid free BSA and 10 mM DTT). […]
PPARγ receptor binding was assayed in TKE50 (50 mM Tris-HCl, pH 8, 50 mM KCl, 2 mM EDTA, 0.1 mg/ml fatty acid-free BSA and 10 mM DTT). […] All binding assays were performed in 96 well plates and the amount of bound ligand measured on a Packard TopCount using OptiPlates (Packard). Nonspecific binding was determined in the presence of 10^−4 M unlabelled compound. […]

Experiment [2] has as its target T1, PPARα. In words: Luciferase transcriptional reporter gene assay, pFA-PPARα-LBD in BHK21 cells. The class given is cell-based. Set-up: expressed in transfected cells; host or cells: BHK21 (ATCC CCL10).
Source text: as §1
Baby hamster kidney cells (BHK21 ATCC CCL10) were grown in DMEM medium containing 10% FBS at 37° C. in a 95% O2:5% CO2 atmosphere. […] Following incubation of the cells for 24 hours with substances, 50 ul of the supernatant was recovered and analyzed for SEAP activity (Roche Molecular Biochemicals). […] Luminescence for both SEAP and luciferase was measured in a Packard TopCount. Luciferase activity was normalized to the SEAP control and transcriptional activation in the presence of a test substance was expressed as fold-activation over cells incubated in the absence of the substance. EC50 values were calculated using the XLfit program (ID Business Solutions Ltd. UK).
In general terms: In a reporter assay the amount or activity of a reporter protein is the signal.

For the molecule `CN(CCOc1ccc(CC2SC(=O)NC2=O)cc1)c1ccccn1` (centres unmarked) [Rosiglitazone, reference compound], the “PPARα IC50” value on PPARα [1] is “inactive”. Also, the “PPARα EC50” value on PPARα [2] is “inactive”.
